In patent US7786122B2:

These molecules were tested against T1, γ-secretase (Homo sapiens, UniProt P49768) (assay: In vitro assay based on the inhibition of Aβ formation from membrane preparations). Conditions: read-out: ACTIVITY RATING (activity based on IC50 values).
From the text: In Vitro Assay to Identify γ-Secretase Inhibitor Based on the Inhibition of Aβ Formation from Membrane Preparations.
An isolated membrane fraction which contains functionally active γ-secretase and β-APP substrates can generate γ-secretase cleavage products including Aβ (Roberts, S. B.; Hendrick, J. P.; Vinitsky, A.; Lewis, M.; Smith, D. W.; Pak, R. PCT Publication WO 01/0175435; Fechteler, K.; Kostka, M.; Fuchs, M. Patent Application No. DE 99-19941039; Shearman, M.; Beher, D. et al., Biochemistry, 2000, 39, 8698-8704; Zhang, L. Song, L. et al., Biochemistry 2001, 40, 5049-5055). An isolated membrane fraction can be prepared from human derived cell lines such as HeLa and H4 which have been transfected with wild type or mutant forms of β-APP or a human alkaline phosphatase β-APP fusion construct, and stably express high levels of γ-secretase substrates. The endogenous γ-secretase present in the isolated membranes prepared at 0-4° C. cleaves the β-APP substrates when the membranes are shifted from 0-4 to 37° C. […] The Aβ present in a homogeneous sample containing membranes can be detected by time-resolved fluorescence with two antibodies that recognize different epitopes of Aβ. One of the antibodies recognizes an epitope that is present in Aβ but not present in the precursor fragments; preferably the antibody binds the carboxyl terminus of Aβ generated by the γ-secretase cleavage. The second antibody binds to any other epitope present on Aβ. For example, antibodies that bind the N-terminal region (e.g., 26D6-B2-B3® SIBIA Neurosciences, La Jolla, Calif.) or bind the C-terminal end (e.g., 9S3.2® antibody, Biosolutions, Newark, Del.) of the Aβ peptide are known. The antibodies are labeled with a pair of fluorescent adducts that transfer fluorescent energy when the adducts are brought in close proximity as a result of binding to the N- and C-terminal ends or regions of Aβ. A lack of fluorescence is indicative of the absence of cleavage products, resulting from inhibition of γ-secretase. The isolated membrane assay can be used to identify candidate agents that inhibit the activity of γ-secretase cleavage and Aβ production.
A typical membrane-based assay requires 45 μg membrane protein per well in a 96- or 384-well format. Membranes in a neutral buffer are combined with the test compound and shifted from 0-4 to 37° C. Test agents may typically consist of synthetic compounds, secondary metabolites from bacterial or fungal fermentation extracts, or extracts from plant or marine samples. All synthetic agents are initially screened at doses ranging from 10-100 μM or in the case of extracts at sufficient dilution to minimize cytotoxicity. Incubation of the membranes with the test agent will continue for approximately 90 minutes at which time fluorescence labeled antibodies are added to each well for Aβ quantitation. The time-resolved fluorescence detection and quantitation of Aβ is described elsewhere (Roberts, S. B.; Hendrick, J. P.; Vinitsky, A.; Lewis, M.; Smith, D. W.; Pak, R. PCT Publication WO 01/0175435; Shearman, M.; Beher, D. et al., Biochemistry, 2000. 39, 8698-8704). Results are obtained by analysis of the plate in a fluorescence plate reader and comparison to the mock treated membranes and samples in which known amounts of Aβ were added to construct a standard concentration curve. A positive acting compound is one that inhibits the Aβ relative to the control sample by at least 50% at the initial tested concentration. If a compound is found to be active then a dose response experiment is preformed to determine the lowest dose of compound necessary to elicit the inhibition of the production of Aβ.
In the table, an inhibitory concentration (IC50) of less than or equal to 50 nM is represented by +++; between 50 nM and 500 nM by ++; between 500 nM and 10000 nM by +.

| Compound | IC50 [nM] |
| --- | --- |
| COc1ccc(CN(C(CC(C)C)C(N)=O)S(=O)(=O)c2cccc(C(F)(F)F)c2)cc1F (stereo not drawn) | 50 to 500 |
| COc1ccc(CN(C(CC(C)C)C(N)=O)S(=O)(=O)c2cccc(Cl)c2)cc1F (stereo not drawn) | 50 to 500 |
| CC(C)CC(C(N)=O)N(Cc1ccc(C(F)(F)F)cc1)S(=O)(=O)c1ccc(Cl)cc1 (stereo not drawn) | < 50 |
| CC(C)CC(C(N)=O)N(Cc1ccc(Cl)cc1)S(=O)(=O)c1ccc(Cl)cc1 (stereo not drawn) | < 50 |
| CC(C)CC(C(N)=O)N(Cc1ccc(Cl)c(Cl)c1)S(=O)(=O)c1ccc(Cl)cc1 (stereo not drawn) | < 50 |

Now from value to molecule:

| IC50 [nM] | Compound |
| --- | --- |
| < 50 | CC(C)CC(C(N)=O)N(Cc1cccc(F)c1)S(=O)(=O)c1ccc(Cl)cc1 (stereo not drawn) |
| < 50 | CC(C)CC(C(N)=O)N(Cc1ccc(F)cc1)S(=O)(=O)c1ccc(Cl)cc1 (stereo not drawn) |
| < 50 | CC(C)CC(C(N)=O)N(Cc1ccccc1)S(=O)(=O)c1ccc(Cl)cc1 (stereo not drawn) |
| < 50 | CC(C)CC(C(N)=O)N(Cc1ccc(C(C)(C)C)cc1)S(=O)(=O)c1ccc(Cl)cc1 (stereo not drawn) |
| < 50 | COc1ccc(CN(C(CC(C)C)C(N)=O)S(=O)(=O)c2ccc(C(F)(F)F)cc2)cc1F (stereo not drawn) |
| < 50 | CC(C)CC(C(N)=O)N(Cc1ccc(O)cc1)S(=O)(=O)c1ccc(Cl)cc1 (stereo not drawn) |
| < 50 | COc1cccc(CN(C(CC(C)C)C(N)=O)S(=O)(=O)c2ccc(Cl)cc2)c1 (stereo not drawn) |
| < 50 | CC(C)CC(C(N)=O)N(CCCc1ccccc1)S(=O)(=O)c1ccc(Cl)cc1 (stereo not drawn) |
| < 50 | COc1ccc(CN(C(CC(C)C)C(N)=O)S(=O)(=O)c2ccc(C)cc2)cc1F (stereo not drawn) |
| < 50 | CCCC(C(N)=O)N(Cc1ccc(C(F)(F)F)cc1)S(=O)(=O)c1ccc(Cl)cc1 (stereo not drawn) |

Each molecule was assayed against T1, γ-secretase (assay: In vitro binding assay to identify γ-secretase inhibitors ([3H]-Compound A competition, THP-1 cell membranes)). Conditions: read-out: ACTIVITY RATING (activity based on IC50 values).
From the text: In Vitro Binding Assay to Identify γ-Secretase Inhibitors.
Competitive binding assays can be used to identify molecules that inhibit the binding of a radiolabeled γ-secretase inhibitor and therefore inhibit γ-secretase activity. For example, [^3H]-Compound A can be used for binding assays with membranes from THP-1 cells (Seiffert, D.; Bradley, J. et al., J. Biol. Chem. 2000, 275, 34086-34091). Compound A is (2R,3S) N1-[(3S)-hexahydro-1-(3-phenoxybenzyl)-2-oxo-1H-azepin-3-yl]-2-(2-methylpropyl)-3-(propyl)-butanediamide, the synthesis of which is described in U.S. Pat. No. 6,331,408 (Dec. 18, 2001); PCT Publication WO 00/28331; PCT Publication WO 00/07995; and Seiffert, D., Bradley, J. et al., J. Biol. Chem. 2000, 275. 34086-34091.
For these assays, THP-1 cells were grown in spinner cultures in RPMI 1640 containing L-glutamine and 10 μM β-mercaptoethanol to a density of 5×10^5 cells/ml. Cells were harvested by centrifugation and cell pellets were quick frozen in dry ice/ethanol and stored at −70° C. prior to use. The pellets of approximately 2×10^4 THP-1 cells were homogenized using a Brinkman Polytron at setting 6 for 10 sec. […] Filter-bound radioactivity was measured by scintillation counting. IC50 values were then determined and used to calculate Ki values using the Cheng-Prusoft correction for IC50 values. […]

| IC50 [nM] | Compound |
| --- | --- |
| 500 to 10000 | CN1CCN(CCOc2ccc(CN(C(CCC(F)(F)F)C(N)=O)S(=O)(=O)c3ccc(Cl)cc3)cc2F)CC1 (single isomer, unassigned) |
| 50 to 500 | CN1CCN(Cc2ccc(CN(C(CCC(F)(F)F)C(N)=O)S(=O)(=O)c3ccc(Cl)cc3)cc2)CC1 (stereo not drawn) |

These molecules were tested against T1, γ-secretase (assay: In vitro assay based on the inhibition of Aβ formation in cultured cells (H4 cells overexpressing HPLAP-APP fusion protein)). Conditions: read-out: ACTIVITY RATING (activity based on IC50 values), 18 hrs incubation.

| IC50 [nM] | Compound |
| --- | --- |
| < 50 | CC(C)C[C@H](C(N)=O)N(Cc1ccc(C(C)(C)F)cc1)S(=O)(=O)c1ccc(Cl)cc1 |
| < 50 | CC(C)CC(C(N)=O)N(CCCc1ccccc1)S(=O)(=O)c1ccc(Cl)cc1 (stereo not drawn) |
| < 50 | CC(C)CC(C(N)=O)N(CC1CCN(C(=O)Nc2ccc(C(F)(F)F)cc2)CC1)S(=O)(=O)c1ccc(Cl)cc1 (stereo not drawn) |
| 500 to 10000 | CN1CCN(CCOc2ccc(CN(C(CCC(F)(F)F)C(N)=O)S(=O)(=O)c3ccc(Cl)cc3)cc2F)CC1 (single isomer, unassigned) |
| 50 to 500 | COc1ccc(CN(C(CC(C)C)C(N)=O)S(=O)(=O)c2cccc(Cl)c2)cc1F (stereo not drawn) |
| 50 to 500 | CC(C)C[C@H](C(N)=O)N(Cc1ccccc1C(F)(F)F)S(=O)(=O)c1ccc(Cl)cc1 |

Same assay, conditions: read-out: ACTIVITY RATING (activity based on IC50 values), 18 hrs incubation, tested form: trifluoroacetate (NMR given for the TFA)

| IC50 [nM] | Compound |
| --- | --- |
| 50 to 500 | CC(C)CC(C(N)=O)N(Cc1ccc(N2CCCC2)nc1)S(=O)(=O)c1ccc(Cl)cc1 (stereo not drawn) |
